Test results published in PubChem BioAssay (NCI).
Only a part is listed here, and it is no random draw.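 In brief: 96-well plates, 48 h treatment, single concentration, percent growth endpoint.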 Calls of active or inactive are those of the source. Rule for the calls: active = growth percent below 10; inactive = the rest.

Key:
Experiment in all cases: NCI-60 one-dose screen, 48 h (100 = growth as untreated, 0 = no growth, -100 = all killed)
Settings in all cases: 10 µM
SK-MEL-2 melanoma = tested on: SK-MEL-2 melanoma
EKVX NSCLC = tested on: EKVX NSCLC
SN12C renal = tested on: SN12C renal
UO-31 renal = tested on: UO-31 renal
TK-10 renal = tested on: TK-10 renal
ACHN renal = tested on: ACHN renal
CAKI-1 renal = tested on: CAKI-1 renal
A498 renal = tested on: A498 renal
HL-60(TB) leukemia = tested on: HL-60(TB) leukemia
CCRF-CEM leukemia = tested on: CCRF-CEM leukemia
MOLT-4 leukemia = tested on: MOLT-4 leukemia
SR leukemia = tested on: SR leukemia
RPMI-8226 leukemia = tested on: RPMI-8226 leukemia
OVCAR-8 ovarian = tested on: OVCAR-8 ovarian
OVCAR-5 ovarian = tested on: OVCAR-5 ovarian
OVCAR-4 ovarian = tested on: OVCAR-4 ovarian
SK-OV-3 ovarian = tested on: SK-OV-3 ovarian
IGROV1 ovarian = tested on: IGROV1 ovarian
OVCAR-3 ovarian = tested on: OVCAR-3 ovarian
HS 578T breast = tested on: HS 578T breast

Measured: growth

O=[N+]([O-])c1cc([N+](=O)[O-])c(NCCO)c([N+](=O)[O-])c1
inactive: SK-MEL-2 melanoma 100% | EKVX NSCLC 93.5% | SN12C renal 88.8% | UO-31 renal 66.6% | TK-10 renal 115% | ACHN renal 48.8% | CAKI-1 renal 80.7% | A498 renal 77.3% | HL-60(TB) leukemia 96.5% | CCRF-CEM leukemia 67.9% | MOLT-4 leukemia 85.8% | SR leukemia 65.6% | RPMI-8226 leukemia 96.8% | OVCAR-8 ovarian 82.8% | OVCAR-5 ovarian 104% | OVCAR-4 ovarian 78.6% | SK-OV-3 ovarian 98.1% | IGROV1 ovarian 88.8% | OVCAR-3 ovarian 88.6% | HS 578T breast 120%

NC(=NCCN/C(N)=N/[N+](=O)[O-])N[N+](=O)[O-]
inactive: SK-MEL-2 melanoma 88.4% | EKVX NSCLC 94.7% | SN12C renal 99.9% | UO-31 renal 96.2% | TK-10 renal 89.6% | ACHN renal 113% | CAKI-1 renal 99.3% | A498 renal 88.1% | HL-60(TB) leukemia 94.7% | CCRF-CEM leukemia 85.1% | MOLT-4 leukemia 103% | SR leukemia 108% | RPMI-8226 leukemia 104% | OVCAR-8 ovarian 98.9% | OVCAR-5 ovarian 114% | OVCAR-4 ovarian 112% | SK-OV-3 ovarian 100% | IGROV1 ovarian 131% | OVCAR-3 ovarian 110% | HS 578T breast 92.2%

CN(CCO)CCCl.O=[N+]([O-])c1cc([N+](=O)[O-])c(O)c([N+](=O)[O-])c1
inactive: SK-MEL-2 melanoma 103% | EKVX NSCLC 102% | SN12C renal 102% | UO-31 renal 88.6% | TK-10 renal 89% | ACHN renal 88.6% | CAKI-1 renal 98.8% | HL-60(TB) leukemia 90.1% | CCRF-CEM leukemia 97.3% | MOLT-4 leukemia 90.9% | SR leukemia 78.7% | RPMI-8226 leukemia 97.5% | OVCAR-8 ovarian 102% | OVCAR-5 ovarian 110% | OVCAR-4 ovarian 105% | SK-OV-3 ovarian 100% | IGROV1 ovarian 101% | OVCAR-3 ovarian 105% | HS 578T breast 109%

O=[N+]([O-])c1cc([N+](=O)[O-])c(Oc2ccccc2)c([N+](=O)[O-])c1
inactive: SK-MEL-2 melanoma 105% | EKVX NSCLC 97.1% | SN12C renal 98.6% | UO-31 renal 84% | TK-10 renal 115% | ACHN renal 107% | CAKI-1 renal 90% | A498 renal 100% | HL-60(TB) leukemia 99.3% | CCRF-CEM leukemia 91.9% | MOLT-4 leukemia 81.8% | SR leukemia 91.7% | RPMI-8226 leukemia 93% | OVCAR-8 ovarian 98.4% | OVCAR-5 ovarian 126% | OVCAR-4 ovarian 109% | SK-OV-3 ovarian 110% | IGROV1 ovarian 105% | OVCAR-3 ovarian 118% | HS 578T breast 116%

CC[N+](C)(CC)Cc1cc(Cc2ccccc2)ccc1OC(=O)N(C)C
inactive: SK-MEL-2 melanoma 125% | EKVX NSCLC 94.2% | SN12C renal 97.6% | UO-31 renal 91.1% | TK-10 renal 106% | ACHN renal 99.9% | CAKI-1 renal 103% | A498 renal 94.7% | HL-60(TB) leukemia 96.6% | CCRF-CEM leukemia 102% | MOLT-4 leukemia 97.5% | SR leukemia 102% | RPMI-8226 leukemia 102% | OVCAR-8 ovarian 116% | OVCAR-5 ovarian 98% | OVCAR-4 ovarian 108% | SK-OV-3 ovarian 94.5% | IGROV1 ovarian 96.4% | OVCAR-3 ovarian 117% | HS 578T breast 122%

O=[N+]([O-])c1cc([N+](=O)[O-])c(O)c([N+](=O)[O-])c1.c1ccc(Cc2ccncc2)cc1
inactive: SK-MEL-2 melanoma 116% | EKVX NSCLC 107% | SN12C renal 101% | UO-31 renal 97.5% | TK-10 renal 96.4% | ACHN renal 103% | CAKI-1 renal 99.9% | A498 renal 90.4% | HL-60(TB) leukemia 124% | CCRF-CEM leukemia 116% | MOLT-4 leukemia 107% | SR leukemia 102% | RPMI-8226 leukemia 113% | OVCAR-8 ovarian 103% | OVCAR-5 ovarian 95.3% | OVCAR-4 ovarian 94.7% | SK-OV-3 ovarian 101% | IGROV1 ovarian 115% | OVCAR-3 ovarian 101% | HS 578T breast 106%

O=[N+]([O-])c1cc([N+](=O)[O-])c(Nc2nnnn2CCO)c([N+](=O)[O-])c1
inactive: SK-MEL-2 melanoma 108% | EKVX NSCLC 99.4% | SN12C renal 104% | UO-31 renal 97% | TK-10 renal 119% | ACHN renal 117% | CAKI-1 renal 104% | A498 renal 102% | HL-60(TB) leukemia 88.5% | CCRF-CEM leukemia 107% | MOLT-4 leukemia 84.5% | SR leukemia 71.9% | RPMI-8226 leukemia 99.7% | OVCAR-8 ovarian 101% | OVCAR-5 ovarian 113% | OVCAR-4 ovarian 99.2% | SK-OV-3 ovarian 116% | IGROV1 ovarian 113% | OVCAR-3 ovarian 121% | HS 578T breast 99.6%
